Values quoted from earlier work as cited in article PMC6686015.

Target: Trypsin (Bos taurus) (UniProt P00760)
Details: cited from earlier work

BPTI (from UniProt P00974)
Ki: 0.06 nM
